Test results reported in patent publication US20040024027A1 (priority 2000, published 2004).

Conditions: 40° C./75% Relative Humidity (RH), open exposure, 1 month, glass bottle

| Solid state stability: HPLC assay [% initial] | Solid state stability: degradation | SMILES |
| --- | --- | --- |
| 97 | No significant degradation observed | CN(CCOc1ccc(CC2SC(=O)NC2=O)cc1)c1ccccn1.I.O (stereo not shown) [Hydriodide Hydrate, 5-[4-[2-(N-Methyl-N-(2-pyridyl)amino)ethoxy]benzyl]thiazolidine-2,4-dione hydriodide hydrate] |
| 97 | No significant degradation observed | CN(CCOc1ccc(CC2SC(=O)NC2=O)cc1)c1ccccn1.I (stereo not shown) [Hydriodide, 5-[4-[2-(N-Methyl-N-(2-pyridyl)amino)ethoxy]benzyl]thiazolidine-2,4-dione Hydriodide] |
